Laboratory results as given in patent US11266624B2, “CRM1 inhibitors reduce primary and acquired resistance of EGFR inhibitors in lung cancer cells” (Texas Tech University System, priority 2018, dated 2022).

System: A549
Test: Western blot of EGFR signaling and survival pathways in A549
Assay type: cell-based, human
Settings: for Relative protein expression level of Akt: 48 hrs, A549, control 100.0±0
Experimental: Western blot analyses. […] Relative densitometric digital analysis for bands of targeted proteins was determined using Image J and normalized by the intensity of the housekeeping gene, α-tubulin.

COc1cc2ncnc(Nc3ccc(F)c(Cl)c3)c2cc1OCCCN1CCOCC1 [gefitinib]
Relative protein expression level of Akt (12 μM gefitinib (alone or + 0.5 nM LMB)): 86±14
Relative protein expression level of Akt (24 μM gefitinib (alone or + 0.5 nM LMB)): 70±9
p-EGFR(Tyr1068) expression compared with controls (A549, 48 hrs, 12/24 μM gefitinib, 0.5 nM LMB): decreased
p-Akt(Ser473) expression (A549, 48 hrs, co-treatment compared with gefitinib alone): inhibited in a dose-response manner
